In ChEMBL document CHEMBL1134251, “Quinazolines as cyclin dependent kinase inhibitors” (Bioorg Med Chem Lett, 2001):

Target: Cyclin-dependent kinase 2/cyclin E (Homo sapiens, UniProt P24941)
Experiment: In vitro inhibitory activity against human cyclin dependent kinase (CDK2/E)
Type: protein-complex assay

CC(C)(C)Nc1nc(C(F)(F)F)nc2ccc(-c3cccc(N)c3)cc12 gave an IC50 of 600 nM.
